# Measured values from publication PMC8524854, “A novel dual-prodrug carried by cyclodextrin inclusion complex for the targeting treatment of colon cancer” (Journal of Nanobiotechnology, 2021).
# System: Kunming mice
# Assay type: in vivo
# Conditions: 15th day after single oral gavage
# Description: All animals were given a single oral gavage of 0.2 mL of different dosage forms, and their body weight was monitored every day. Meanwhile, the toxicity and mortality of all animals were observed every day. The conventional changes such as the cases of the diet, urine, and feces were recorded. On the 15th day after treatment, the blood of each group was collected from the heart and centrifuged at 1,000 × g for 10 min to collect serum. An automated biochemical analyzer was used to detect serum alanine aminotransferase (ALT), aspartate aminotransferase (AST), blood urea nitrogen (BUN), and creatinine (Cr). Meanwhile, the heart, liver, lung, and kidney were quickly excised, washed with normal saline, and weighed. The visceral index is estimated according to the following formula as Viscera Index (%) = Viscera Weight / Body Weight × 100. And then, all the tissues were fixed with 10% formalin and stained with hematoxylin & eosin (H&E) for pathological analysis.
smiles,measurement,setting,value
"CCCC(=O)[O-].[Na+] [NaB, sodium butyrate]",Heart index,,0.83 ± 0.12%
same,Kidney index,,2.31 ± 0.26%
same,Liver index,,7.61 ± 1.33%
same,Lung index,,0.84 ± 0.31%
same,Cr,serum,8.32 ± 0.98 µmol/L
